Inhibition data for two molecules are collected here from PubChem BioAssay AID720508 (The Scripps Research Institute Molecular Screening Center, 2013).

Protein sequences, listed by entry. Tags and fused reporters are not part of them.
UniProt P02675, whole entry, looked up: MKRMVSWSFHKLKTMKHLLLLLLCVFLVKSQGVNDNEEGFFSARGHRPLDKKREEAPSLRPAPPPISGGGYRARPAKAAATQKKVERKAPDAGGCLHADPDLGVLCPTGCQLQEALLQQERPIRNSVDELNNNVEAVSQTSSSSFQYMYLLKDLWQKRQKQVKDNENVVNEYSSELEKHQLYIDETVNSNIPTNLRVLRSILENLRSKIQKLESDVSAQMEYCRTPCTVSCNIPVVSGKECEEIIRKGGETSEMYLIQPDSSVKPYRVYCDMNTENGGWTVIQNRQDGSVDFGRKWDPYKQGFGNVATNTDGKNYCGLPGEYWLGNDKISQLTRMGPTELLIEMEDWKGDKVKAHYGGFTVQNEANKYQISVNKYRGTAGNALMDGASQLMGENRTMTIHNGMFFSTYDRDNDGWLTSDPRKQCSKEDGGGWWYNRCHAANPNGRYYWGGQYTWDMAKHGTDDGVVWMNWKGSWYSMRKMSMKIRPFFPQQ

The entries are a selection whose mix differs from that of the whole data set. The source made the active and inactive calls.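 How the source made its calls: active means inhibition above the mean of compounds falling within the control limits plus 3 SD of them (cut at about 14% in these data); inactive means the rest.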

For the test, the target named is Fibrinogen beta chain (Homo sapiens) (UniProt P02675). The test is described as follows: small molecules displacing Tn7 from DD(E) complex – biochemical, fluorescence polarization, human fibrin, Tn7 probe, primary screen (AID 720508).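 Further: 0% = plate median of compound wells and 100% = 10 µM Aha-Tn7 peptide.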 The note with it: FP displacement of FITC-Tn7 peptide from fibrin DD(E); at 8.3 µM; hits give high values; 0% = median of compound wells per plate. A general note: Polarisation of emitted light reports the rotation of a fluorescent probe.
One may read the inhibition as the relative decrease from the control value, in per cent. As to `CCC(=O)N(c1ccccc1)C1(COC)CCN(CCn2nnn(CC)c2=O)CC1`, the inhibition was inactive: -2.66%.

In the case of `CCC(=O)N(c1ccccc1)C1(COC)CCN(CCc2cccs2)CC1`, the inhibition was inactive: -0.06%.
